Reference: ChEMBL document CHEMBL4145544, “Discovery and optimization of 1-(1H-indol-1-yl)ethanone derivatives as CBP/EP300 bromodomain inhibitors for the treatment of castration-resistant prostate cancer” (Eur J Med Chem, 2018)

Chains of the proteins cited; added tags and fusions are not shown.
UniProt Q09472, whole entry, looked up: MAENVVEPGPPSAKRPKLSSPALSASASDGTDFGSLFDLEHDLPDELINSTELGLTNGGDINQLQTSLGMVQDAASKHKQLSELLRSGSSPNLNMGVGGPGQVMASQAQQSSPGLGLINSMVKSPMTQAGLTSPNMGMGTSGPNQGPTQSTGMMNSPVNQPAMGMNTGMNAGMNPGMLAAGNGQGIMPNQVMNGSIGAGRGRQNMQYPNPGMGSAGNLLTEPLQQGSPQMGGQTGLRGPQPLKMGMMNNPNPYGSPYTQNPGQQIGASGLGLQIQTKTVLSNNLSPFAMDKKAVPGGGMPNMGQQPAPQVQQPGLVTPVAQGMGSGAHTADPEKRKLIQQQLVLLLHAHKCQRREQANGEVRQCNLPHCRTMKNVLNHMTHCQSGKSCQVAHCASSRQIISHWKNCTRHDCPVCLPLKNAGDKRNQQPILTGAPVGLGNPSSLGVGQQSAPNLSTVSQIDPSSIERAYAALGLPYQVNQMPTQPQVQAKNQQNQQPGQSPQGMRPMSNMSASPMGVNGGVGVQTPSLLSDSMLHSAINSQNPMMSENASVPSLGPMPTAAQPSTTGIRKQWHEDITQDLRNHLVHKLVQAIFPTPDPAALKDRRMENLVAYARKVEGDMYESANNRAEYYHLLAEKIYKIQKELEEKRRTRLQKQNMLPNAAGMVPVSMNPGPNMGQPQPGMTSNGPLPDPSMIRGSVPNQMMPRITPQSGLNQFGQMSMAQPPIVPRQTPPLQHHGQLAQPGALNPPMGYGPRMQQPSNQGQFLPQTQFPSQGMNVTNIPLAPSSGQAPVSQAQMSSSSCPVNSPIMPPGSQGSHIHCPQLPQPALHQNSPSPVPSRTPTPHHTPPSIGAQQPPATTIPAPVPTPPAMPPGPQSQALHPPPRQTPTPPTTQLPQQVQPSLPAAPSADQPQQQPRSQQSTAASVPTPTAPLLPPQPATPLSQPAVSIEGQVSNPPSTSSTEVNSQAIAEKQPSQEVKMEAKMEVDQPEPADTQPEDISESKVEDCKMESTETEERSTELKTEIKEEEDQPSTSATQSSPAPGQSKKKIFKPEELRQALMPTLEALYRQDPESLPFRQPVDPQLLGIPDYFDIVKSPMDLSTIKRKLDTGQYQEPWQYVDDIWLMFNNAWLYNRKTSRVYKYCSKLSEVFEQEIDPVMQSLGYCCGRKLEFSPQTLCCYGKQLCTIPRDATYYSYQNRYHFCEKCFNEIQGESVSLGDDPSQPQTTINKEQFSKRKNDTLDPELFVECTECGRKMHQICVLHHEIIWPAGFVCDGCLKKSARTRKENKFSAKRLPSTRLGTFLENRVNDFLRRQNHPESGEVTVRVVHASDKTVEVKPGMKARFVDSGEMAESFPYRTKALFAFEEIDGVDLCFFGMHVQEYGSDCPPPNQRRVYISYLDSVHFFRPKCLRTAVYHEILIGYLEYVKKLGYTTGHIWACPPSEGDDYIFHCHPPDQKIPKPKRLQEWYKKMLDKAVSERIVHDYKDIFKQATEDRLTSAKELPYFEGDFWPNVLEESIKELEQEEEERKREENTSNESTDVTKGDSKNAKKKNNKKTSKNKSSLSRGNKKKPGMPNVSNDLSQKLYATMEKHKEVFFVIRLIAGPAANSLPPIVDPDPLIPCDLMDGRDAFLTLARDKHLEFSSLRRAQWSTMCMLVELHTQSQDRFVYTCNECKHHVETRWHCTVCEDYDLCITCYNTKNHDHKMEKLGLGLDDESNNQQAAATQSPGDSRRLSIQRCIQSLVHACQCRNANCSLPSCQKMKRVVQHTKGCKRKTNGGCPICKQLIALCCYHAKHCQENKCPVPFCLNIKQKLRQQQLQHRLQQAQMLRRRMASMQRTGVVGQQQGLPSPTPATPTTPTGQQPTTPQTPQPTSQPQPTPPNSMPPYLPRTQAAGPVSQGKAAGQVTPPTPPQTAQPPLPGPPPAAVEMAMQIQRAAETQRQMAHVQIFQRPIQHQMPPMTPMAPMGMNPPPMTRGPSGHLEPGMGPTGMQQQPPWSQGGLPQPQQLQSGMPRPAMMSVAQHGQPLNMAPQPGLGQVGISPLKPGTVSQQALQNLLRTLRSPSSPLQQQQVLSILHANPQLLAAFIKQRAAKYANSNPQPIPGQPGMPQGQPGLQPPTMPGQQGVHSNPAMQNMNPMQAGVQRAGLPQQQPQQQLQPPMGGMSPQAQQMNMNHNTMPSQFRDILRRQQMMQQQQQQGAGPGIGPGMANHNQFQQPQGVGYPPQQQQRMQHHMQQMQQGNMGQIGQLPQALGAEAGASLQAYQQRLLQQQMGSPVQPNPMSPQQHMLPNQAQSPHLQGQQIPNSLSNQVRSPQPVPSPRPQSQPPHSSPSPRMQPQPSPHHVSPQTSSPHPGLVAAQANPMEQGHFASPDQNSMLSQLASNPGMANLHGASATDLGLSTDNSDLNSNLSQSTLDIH
UniProt Q92793, whole entry, looked up: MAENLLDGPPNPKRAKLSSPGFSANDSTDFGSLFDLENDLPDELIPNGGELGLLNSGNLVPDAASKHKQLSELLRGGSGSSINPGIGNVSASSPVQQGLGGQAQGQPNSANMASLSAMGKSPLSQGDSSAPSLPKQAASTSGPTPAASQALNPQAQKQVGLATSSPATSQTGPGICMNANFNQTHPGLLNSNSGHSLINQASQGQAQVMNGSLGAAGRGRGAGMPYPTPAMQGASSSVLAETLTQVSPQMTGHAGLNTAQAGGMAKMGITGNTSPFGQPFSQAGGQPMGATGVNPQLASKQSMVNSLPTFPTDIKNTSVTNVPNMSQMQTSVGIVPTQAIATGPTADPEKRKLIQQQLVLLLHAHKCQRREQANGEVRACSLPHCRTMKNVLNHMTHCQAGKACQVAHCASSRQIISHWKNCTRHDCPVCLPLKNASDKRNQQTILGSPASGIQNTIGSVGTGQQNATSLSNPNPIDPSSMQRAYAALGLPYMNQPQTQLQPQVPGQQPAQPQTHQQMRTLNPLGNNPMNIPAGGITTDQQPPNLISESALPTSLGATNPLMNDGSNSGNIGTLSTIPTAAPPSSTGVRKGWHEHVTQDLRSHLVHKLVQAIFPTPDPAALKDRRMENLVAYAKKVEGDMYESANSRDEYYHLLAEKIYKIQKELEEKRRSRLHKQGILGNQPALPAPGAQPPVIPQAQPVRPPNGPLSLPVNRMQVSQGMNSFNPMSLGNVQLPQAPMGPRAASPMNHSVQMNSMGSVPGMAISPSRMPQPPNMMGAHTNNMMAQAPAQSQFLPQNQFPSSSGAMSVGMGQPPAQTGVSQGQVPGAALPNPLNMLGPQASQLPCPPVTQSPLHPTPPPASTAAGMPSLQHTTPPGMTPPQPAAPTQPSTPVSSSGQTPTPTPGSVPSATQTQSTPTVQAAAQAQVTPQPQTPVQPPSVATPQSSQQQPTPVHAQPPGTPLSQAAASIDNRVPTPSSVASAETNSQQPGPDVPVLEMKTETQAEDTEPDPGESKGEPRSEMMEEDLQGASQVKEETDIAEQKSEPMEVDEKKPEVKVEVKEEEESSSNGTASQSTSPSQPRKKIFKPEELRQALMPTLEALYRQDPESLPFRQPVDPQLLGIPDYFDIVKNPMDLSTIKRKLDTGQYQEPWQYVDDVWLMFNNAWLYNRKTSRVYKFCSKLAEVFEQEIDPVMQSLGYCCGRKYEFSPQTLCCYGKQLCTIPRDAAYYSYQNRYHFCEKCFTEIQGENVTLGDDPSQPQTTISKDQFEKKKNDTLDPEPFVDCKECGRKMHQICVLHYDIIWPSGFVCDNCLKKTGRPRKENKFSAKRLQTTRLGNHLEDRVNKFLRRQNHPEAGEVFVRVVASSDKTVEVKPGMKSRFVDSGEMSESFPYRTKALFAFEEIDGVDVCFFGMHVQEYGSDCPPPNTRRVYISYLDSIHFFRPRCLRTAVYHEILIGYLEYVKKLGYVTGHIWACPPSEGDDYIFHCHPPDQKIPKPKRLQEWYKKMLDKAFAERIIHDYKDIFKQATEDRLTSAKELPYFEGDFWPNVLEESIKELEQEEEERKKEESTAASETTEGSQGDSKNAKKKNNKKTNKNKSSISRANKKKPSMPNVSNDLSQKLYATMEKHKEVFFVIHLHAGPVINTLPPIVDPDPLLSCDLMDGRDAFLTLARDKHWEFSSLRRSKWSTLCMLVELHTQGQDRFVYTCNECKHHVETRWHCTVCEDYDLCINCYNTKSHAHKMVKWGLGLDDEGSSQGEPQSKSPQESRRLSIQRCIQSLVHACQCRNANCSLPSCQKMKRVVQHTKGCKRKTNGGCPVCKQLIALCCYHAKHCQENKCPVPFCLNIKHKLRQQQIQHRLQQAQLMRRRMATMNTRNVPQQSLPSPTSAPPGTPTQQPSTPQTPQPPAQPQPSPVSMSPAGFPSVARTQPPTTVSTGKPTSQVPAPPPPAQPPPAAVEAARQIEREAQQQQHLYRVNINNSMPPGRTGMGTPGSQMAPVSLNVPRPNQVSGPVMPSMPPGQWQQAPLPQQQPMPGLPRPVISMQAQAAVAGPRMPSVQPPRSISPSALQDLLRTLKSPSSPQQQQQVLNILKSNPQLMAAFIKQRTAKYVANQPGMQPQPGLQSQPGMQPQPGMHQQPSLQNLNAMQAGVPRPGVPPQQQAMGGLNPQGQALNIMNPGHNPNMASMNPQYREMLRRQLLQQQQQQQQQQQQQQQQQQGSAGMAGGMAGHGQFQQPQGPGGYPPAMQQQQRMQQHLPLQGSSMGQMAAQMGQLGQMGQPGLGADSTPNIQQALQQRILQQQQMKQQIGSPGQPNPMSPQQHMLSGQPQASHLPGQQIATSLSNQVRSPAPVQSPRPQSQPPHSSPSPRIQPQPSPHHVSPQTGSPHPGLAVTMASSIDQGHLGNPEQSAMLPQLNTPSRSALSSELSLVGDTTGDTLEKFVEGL

How the values were obtained:
Type in all cases: cell-based
[1] = target: T1, CREB-binding protein/Histone acetyltransferase p300 (Homo sapiens) (UniProt Q09472+Q92793); assay: Inhibition of EP300/CBP in human 22Rv1 cells assessed as downregulation of full length AR protein expression by measuring FL-AR protein level at 2 uM after 48 hrs by Western blot analysis relative to control
[2] = target: T1, CREB-binding protein/Histone acetyltransferase p300 (Homo sapiens); assay: Inhibition of EP300/CBP in human 22Rv1 cells assessed as downregulation of full length AR protein expression by measuring FL-AR protein level at 1 uM after 48 hrs by Western blot analysis relative to control
[3] = target: T1, CREB-binding protein/Histone acetyltransferase p300 (Homo sapiens); assay: Inhibition of EP300/CBP in human 22Rv1 cells assessed as downregulation of full length AR protein expression by measuring FL-AR protein level at 4 uM after 48 hrs by Western blot analysis relative to control
[4] = target: T1, CREB-binding protein/Histone acetyltransferase p300 (Homo sapiens); assay: Inhibition of EP300/CBP in human 22Rv1 cells assessed as downregulation of full length AR protein expression by measuring FL-AR protein level at 8 uM after 48 hrs by Western blot analysis relative to control
[5] = target: T1, CREB-binding protein/Histone acetyltransferase p300 (Homo sapiens); assay: Inhibition of EP300/CBP in human 22Rv1 cells assessed as downregulation of full length AR protein expression by measuring FL-AR protein level at 16 uM after 48 hrs by Western blot analysis relative to control
[6] = target: T1, CREB-binding protein/Histone acetyltransferase p300 (Homo sapiens); assay: Inhibition of EP300/CBP in human 22Rv1 cells assessed as downregulation of AR-V7 protein expression by measuring AR-V7 protein level at 1 uM after 48 hrs by Western blot analysis relative to control
[7] = target: T1, CREB-binding protein/Histone acetyltransferase p300 (Homo sapiens); assay: Inhibition of EP300/CBP in human 22Rv1 cells assessed as downregulation of AR-V7 protein expression by measuring AR-V7 protein level at 2 uM after 48 hrs by Western blot analysis relative to control
[8] = target: T1, CREB-binding protein/Histone acetyltransferase p300 (Homo sapiens); assay: Inhibition of EP300/CBP in human 22Rv1 cells assessed as downregulation of AR-V7 protein expression by measuring AR-V7 protein level at 4 uM after 48 hrs by Western blot analysis relative to control
[9] = target: T1, CREB-binding protein/Histone acetyltransferase p300 (Homo sapiens); assay: Inhibition of EP300/CBP in human 22Rv1 cells assessed as downregulation of AR-V7 protein expression by measuring AR-V7 protein level at 8 uM after 48 hrs by Western blot analysis relative to control
[10] = target: T1, CREB-binding protein/Histone acetyltransferase p300 (Homo sapiens); assay: Inhibition of EP300/CBP in human 22Rv1 cells assessed as downregulation of AR-V7 protein expression by measuring AR-V7 protein level at 16 uM after 48 hrs by Western blot analysis relative to control

fold change (FC) [1]: 0.81
fold change (FC) [2]: 1.04
fold change (FC) [3]: 0.88
fold change (FC) [4]: 0.78
fold change (FC) [5]: 0.3
fold change (FC) [6]: 0.84
fold change (FC) [7]: 0.81
fold change (FC) [8]: 0.76
fold change (FC) [9]: 0.27
fold change (FC) [10]: 0
SMILES: COc1ccc2c(c1)c(C(=O)Nc1cc(C(=O)OC(C)(C)C)cc(-c3cnn(C)c3)c1F)cn2C(C)=O
